Patent US7973043B2, “Combination therapy for depression, prevention of suicide, and various medical and psychiatric conditions” (priority 2002, dated 2011)

Settings: hypothetical cases

Compound: Cc1nc2n(c(=O)c1CCN1CCC(c3noc4cc(F)ccc34)CC1)CCCC2 [risperidone]
- adverse effect: galactorhoea
